Reference: patent US11092596B2, “Material and method to screen proteasome stimulators” (Purdue Research Foundation, priority 2017, dated 2021)

How the values were obtained:
[1] = biological target: T1, chymotrypsin-like activity of the 20S CP (Homo sapiens, UniProt P28074); experiment: Kinetic assay, Suc-LLVY-AMC reporter hydrolysis by purified 20S CP; type: biochemical; conditions: 25 μM compound, triplicate; hit = at least 50% increase
Method: (§1) Plate preparation for the kinetic assay was performed similarly for all assays. All 96-well plates contained the following in triplicate: reporter background, containing reporter only, and control wells, containing reporter and purified 20S CP. It was determined that each well will contain a total volume of 50 μL. To each well was added 40 μL of the coumarin or FRET reporters (in Tris-HCl, 50 mM, pH 7.7). To the reporter background wells was added 7.5 μL Tris-HCl and 2.5 μL of the solvent in which the compound of interest was dissolved or diluted. Similarly, to the control wells was added 2.5 μL Tris-HCl and 2.5 μL of the solvent in which the compound of interest was dissolved or diluted. […] Immediately prior to running the assay on the Synergy 4 Plate Reader, 5 μL purified 20S proteasome (90 nM in Tris-HCl) was added to the control and test wells.
(§2) The Synergy 4 Plate Reader was set to heat the plate at 37° C. and read fluorescence every 2 min over a 40 min period. […]
Sodium dodecyl sulfate (SDS) was used to test the effect stimulating the 20S proteasome has on the hydrolysis of the FRET reporters. The appropriate concentration of SDS to use in the kinetic assay was determined using the small chymotrypsin-like activity reporter, Suc-LLVY-AMC (SEQ ID NO: 4). […]
The Synergy 4 Plate Reader was set to heat the plate at 37° C. and read fluorescence every 2 min over a 1 hr period. […]

[2] = biological target: T1, chymotrypsin-like activity of the 20S CP; experiment: Kinetic assay, CT-L FRET reporter hydrolysis by purified 20S CP; type: biochemical; conditions: read-out: EC50 (concentration of half of the maximum stimulation) for 20S CP stimulation, dose response 0.78125-400 μM, triplicate
[3] = biological target: caspase-like activity of the 20S CP (Homo sapiens, UniProt P28072); experiment: Kinetic assay, CP-L FRET reporter hydrolysis by purified 20S CP; conditions: 25 μM compound
Method: Plate preparation for the kinetic assay was performed similarly for all assays. All 96-well plates contained the following in triplicate: reporter background, containing reporter only, and control wells, containing reporter and purified 20S CP. It was determined that each well will contain a total volume of 50 μL. To each well was added 40 μL of the coumarin or FRET reporters (in Tris-HCl, 50 mM, pH 7.7). To the reporter background wells was added 7.5 μL Tris-HCl and 2.5 μL of the solvent in which the compound of interest was dissolved or diluted. Similarly, to the control wells was added 2.5 μL Tris-HCl and 2.5 μL of the solvent in which the compound of interest was dissolved or diluted. To the test wells was added 2.5 μL Tris-HCl and 2.5 μL of the compound of interest at a predetermined concentration. Immediately prior to running the assay on the Synergy 4 Plate Reader, 5 μL purified 20S proteasome (90 nM in Tris-HCl) was added to the control and test wells.
as §2
To each well was added 40 μL 20 μM CP-L FRET reporter (in Tris-HCl, 50 mM, pH 7.7). […] Immediately prior to running the assay on the Synergy 4 Plate Reader, 5 μL purified 20S proteasome (90 nM in Tris-HCl) was added to the control and test wells.

[4] = biological target: chymotrypsin-like activity of the 26S proteasome (Homo sapiens, UniProt P28074); experiment: Kinetic assay, CT-L FRET reporter with 26S proteasome; type: biochemical; conditions: 25 μM compound
Method: Compounds 1, 2, and 3 were screened with the 26S proteasome in triplicate using the CT-L FRET reporter.
To each well was added 40 μL 20 μM CT-L FRET reporter (in Tris-HCl, 50 mM, pH 7.7). To the reporter background wells was added 5 μL Tris-HCl and 5 μL 1:1 Tris-HCl:DMSO. Similarly, to the control wells was added 5 μL 1:1 Tris-HCl:DMSO. To the test wells was added 2.5 μL Tris-HCl and 2.5 μL of a 500 μM solution of the compound of interest in DMSO. […] Immediately prior to running the assay on the Synergy 4 Plate Reader, 5 μL purified 26S proteasome (62.5 μg/mL in Tris-HCl) was added to the control and test wells.
The assay was performed using the Synergy 4 plate reader as described for the general screening kinetic assay procedure.

[5] = biological target: trypsin-like activity of the 20S CP (Homo sapiens, UniProt Q99436); experiment: Kinetic assay, T-L FRET reporter hydrolysis by purified 20S CP; type: biochemical; conditions: 25 μM compound
Method: as §1, §2
Stimulation of the 20S proteasome with SDS was determined using both the coumarin and FRET reporters for the chymotrypsin-like and trypsin-like activities of the 20S CP. […] Immediately prior to running the assay on the Synergy 4 Plate Reader, 5 μL purified 20S proteasome (90 nM in Tris-HCl) was added to the control and test wells. […]

## O=c1cccc2n1CC1CC2CN(c2nc(N3CCCC3)nc(N3CCCC3)n2)C1 (stereo not drawn)
[1]
  primary hit status with the 4-amino acid reporter Suc-LLVY-AMC: would not have been considered primary hits
[2]
  EC50: 10 µM
[3]
  effect on the caspase-like activity of the 20S CP: did not affect
[4]
  ability to stimulate the 26S proteasome's CT-L activity: showed any stimulation ability
  increase in 26S stimulation: 44%
[5]
  effect on the trypsin-like activity of the 20S CP: did not affect
